Laboratory results reported in patent publication US12351878B2, “Identification of HER2 mutations in lung cancer and methods of treatment” (THE TRANSLATIONAL GENOMICS RESEARCH INSTITUTE, priority 2018, dated 2025).

What was measured:
[1] = system: BACA (HER2 WT); experiment: 72 hour drug dose-response, CellTiter-Glo cell viability; type: cell-based, canine
Protocol: (§1) Relative survival was measured with respect of the sensitive cell line BT474.
(§2) Sample Collection: Tumors and cell lines from 89 dogs from the Canine Comparative Oncology and Genomics Consortium (CCOGC) (11) and The Ohio State University (OSU) College of Veterinary Medicine Biospecimen Repository were included. Board-certified veterinary pathologists confirmed tumor diagnosis based on histopathology. Tumor and normal tissue samples were flash frozen in liquid nitrogen or formalin-fixed and paraffin-embedded (FFPE). Cell lines were maintained in RPMI 1640 with GlutaMAX™ (Gibco™, Thermo Fisher Scientific, #61870036) supplemented with 10% heat-inactivated fetal bovine serum at 37° C. and 5% CO2 and passaged at 90% confluence. Cell lines with known passage data (except BACA) were sequenced within the first eight passages of derivation and subsequently expanded for phenotypic studies, and were authenticated by IDEXX BioResearch (Columbia, MO) using the Cell Check Canine STR Profile and Interspecies Contamination Test or by NkX2 (or TTF-1) RT-PCR. Human cell lines included BT474 (ATCC #HTB20, HER2 focal amplification) and H1781 (ATCC #CRL-5894, HER2 […]). Blood for cell-free DNA (cfDNA) and germline DNA extraction was collected in 10 ml K2 EDTA Blood tubes (Thermo Fisher Scientific #22-253-145). Plasma separation was performed at room temperature within 1 hour (2× serial centrifugation at 2000 rpm×15 minutes). Plasma aliquots were stored frozen at −80° C. DNA extraction from plasma, white blood cells and tissue was performed with MagMAX Cell-Free DNA Isolation Kit (Thermo Fisher Scientific #A29319), DNeasy Blood and Tissue Kit (QIAGEN #69504) and Qiagen AllPrep DNA/RNA Mini Kit (QIAGEN #80204), respectively.
(§3) Cells were cultured in RPMI supplemented with 10% FBS and 1% Penicillin/Streptomycin. Luminescence was read using Synergy Mx (Biotek) plate reader. Six replicates were performed for each dose. Curve-fitting and IC50 calculations were performed using GraphPad Prism v7.00 (GraphPad Software).

[2] = system: OSUK9PADSn (HER2 WT); experiment: as above; type: cell-based, canine
Protocol: as §1, §2, §3

[3] = system: OSUK9PAPADO; experiment: as above; type: cell-based, canine
Protocol: as §1, §2, §3

[4] = system: HER2-overexpressing canine cancer cell lines; settings: reference 50; cited from earlier work

With trastuzumab the dose-dependent viability response [1] was “no responses at any dose”, the dose-dependent viability response [2] was “More limited responses” and the dose-dependent viability response [3] was “More limited responses”. For the same substance, the “proliferation of HER2-overexpressing canine cancer cell lines” value [4] was “inhibit proliferation”.
